Experimental data published in patent publication EP1334195B1, “ANALOGUES, AGONISTS, ANTAGONISTS AND VARIANTS OF THE OXIDOREDUCTASE ENZYME ACTIVITY OF THE MACROPHAGE-MIGRATION INHIBITION FACTOR (MIF) AS IMMUNOMODULATORS, MEDICAMENTS, DIAGNOSTICS AND SCREENING AGENTS IN INFLAMMATORY AND IMMUNE DISEASES” (Fraunhofer-Gesellschaft zur Förderung der angewandten …, priority 2000, dated 2007).

Assays:
[1] = Solubility in physiological buffers (PBS, TBS) and H2O; assay type: physicochemical; settings: aqueous buffer; physiological buffers such as PBS or TBS, also H2O; read-out: löslich (Konzentration)
Method: Im Zusammenhang mit der vorliegenden Erfindung wird unter löslich verstanden, dass das Derivat in physiologischen Puffern wie PBS oder TBS sowie auch in H2O löslich ist. Die Derivate sind auch bei weit höheren Konzentrationen (MIF 50-65 zum Beispiel bei 1 mM vs. ≤ 8 µm bei C60S MIF) löslich.

[2] = Oxidation study of the peptide (air oxidation, HPLC and LC-MS analysis); assay type: physicochemical; settings: 100 µM peptide in 10 mM Tris-HCl, pH 8,0
Excerpt: (§1) Oxidationsstudien mit anschließender HPLC-Analytik oder Untersuchungen durch Circulardichroismus-Spektropolarimetrie zeigten dann auch, dass MIF-Pep-161 eine starke Tendenz zur Ausbildung einer intramolekularen Disulfidbrücke hat. Dies zeigte sich durch die für Disulfidbrücken charakteristische Erhöhung des φ-Wertes von oxidiertem MIF-Pep-161 im Nah-UV-GD bei ∼275 nm sowie durch den ebenfalls charakteristischen Anstieg der β-Turn-Konformation (negativer Peak bei -225 nm im Fern-UV-CD). Dieser geht auf die durch das Disulfid induzierte Loopstabilisierung zurück, welche die entsprechende β-Turnstruktur stabilisiert. Parallel dazu wurde eine entsprechend verringerte random coil-Struktur bei oxidiertem MIF-Pep-161 gegenüber reduzietem MIF-Pep-161 beobachtet. Diese Daten zeigen eindeutig, dass MIF-Pep-161 trotz der geringen Molekülgröße eine Sekundärstruktur ausbildet und eine reaktive Dithiolstruktur enthält. Bei den durch CD analysierten Oxidationsstudien von MIF-Pep-161 wurde experimentell wie folgt vorgegangen: MIF-Pep-161 wurde entweder mit DTT reduziert oder durch Luftoxidation oxidiert (100 µM Peptid in 10 mM Tris-HCl, pH 8,0) beziehungsweise reduziertes MIF-Pep-161 wieder reoxidiert. Bei der Oxidation haben die Cystein-Thiole Gelegenheit, inter- oder intramolekulare Disulfide auszubilden. […]

Insulin = Insulin reduction assay (catalytic redox activity); assay type: biochemical; settings: peptide at 40 µM; result in words
Excerpt: as §1

Macrophagen = assay: Glucocorticoid overriding assay (macrophage activation test, per Calandra et al. 1995); assay type: cell-based; settings: 0,6 µM or 6,6 µM peptide; 1 µg/ml LPS, 10^-9 M Dex
Excerpt: as §1

[3] = HED oxidoreductase test of immobilised MIF / MIFARs; assay type: biochemical
Excerpt: MIF-Pep-161 oder humanes rekombinantes MIF oder Mono-MIF-Rekombein-1 wurde biotinyliert und an einen mit Streptavidin funktionalisierten Siliciumwafer gebunden und die MIF-Immobilisierung durch grenzflächentechnische Analytik wie Ellipsometrie und Schichtdickenmessung bestätigt. So immobilisiertes MIF wurde dann auf seine Oxidoreduktaseaktivität untersucht. Dazu wurde ein definiertes Waferstück in ein Reaktionsgefäß eingebracht und dort mit der Reaktionslösung des HED-Oxidoreduktasetests in Kontakt gebracht (siehe z. B. Kleemann et al., 1998a). Nach 10 Minuten wurde diese Lösung wieder abpipettiert und die Menge an umgesetzten HEDs im Fotometer bestimmt. Immobilisiertes MIF zeigte 64+/-7 % Aktivität im Vergleich zur Aktivität von Wildtyp-MIF im Standardassay in Lösung. Wurde MIF kovalent an einen aminofunktionalisierten Wafer gebunden, wurden noch ca. 39 % Aktivität gemessen. Die Immobilisierung von MIF an CNBr-aktivierte Sepharose als Träger (nach Muronetz et al., 1988) war ebenfalls erfolgreich. So hatte immobilisiertes MIF 71+/-11 % Aktivität im Vergleich zur Kontrollmessung in Lösung.

Jab1 = assay: Competition of MIF-Jab1 binding in TNT reticulocyte lysate system (anti-MIF IP / anti-biotin Western blot); settings: Figure 1; result in words
Excerpt: Es wurden in vitro-Studien in einem TNT-Retikulozytenlysatsystem durchgeführt. Die Figur 1 stellt einen Anti-Biotin-S-HRP Westernblot dar. […] Gleiches gilt für das 16 Aminosäuren lange MIF-Derivat mit den Aminosäuren 50-65 von Wildtyp-MIF, wobei die Aminosäuren Cys57 und Cys60 durch Ser57 und Ser60 ausgetauscht sind.

THP-1-Zellen = assay: Glucocorticoid overriding test in THP-1 monocyte line (TNF ELISA); assay type: cell-based, human; settings: THP-1 cells, Dexamethason 10^-6 M, 1 µg/ml LPS, 4 h, TNF by ELISA; Figure 3
Excerpt: Das MIF-Pep-161-Peptid weist MIF-artige immunologische Aktivität im Glucocorticoid-Overriding-Test auf (siehe Beispiel 2). Der originär beschriebene in der Forschung eingesetzte Glucocorticoid-Overriding-Test in primären Blutmonozyten aus Spenderblut ist jedoch für pharmakologische Screeningtests ungeeignet, da der Test eine Spenderabhängige Variabilität aufweist und primäre Blutmonozyten nicht in den für Screeningansätze benötigten großen Mengen zur Verfügung stehen. Es wurde daher untersucht, ob die Glucocorticoid-Overriding-Aktivität von MIF-Pep-161-Peptid auch in einer für Screeningzwecke geeigneten Monozytenlinie gemessen werden kann. Hierzu wurde der Glucocorticoid-Overriding-Test zunächst in der humanen THP-1-Zelllinie etabliert. Hierzu mussten einige der Testparameter wie die Inkubationszeit und die Dexamethasonkonzentration neu adaptiert werden. Der optimierte Test in THP-1-Zellen ist im Folgenden beschrieben: Es werden THP-1-Zellen (human acute monocytic leukemia cell line) verwendet. Die Zellen werden in RPMI 1640+ 10% FCS; 2 mM L-Glutamine; 100 U/ml Pen/Strep kultiviert. Alle Lösungen zuzugebender Stoffe werden 100-fach konzentriert angesetzt, so dass im Assay je 5 µl pro well zugegeben werden können. Dexamethason wird in EtOH gelöst, dann in Medium weiterverdünnt. LPS wird vor der Verdünnung für 5 min ultrabeschallt. […]

p27-Kip1 = assay: Modulation of cellular p27-Kip1 levels in NIH 3T3 fibroblasts; assay type: cell-based; settings: peptides 3.3 µM (Figure 4), oxidised and reduced form comparable
Excerpt: MIF reguliert über die Bindung an JAB1 zentrale Zellzyklusvorgänge (Kleemann et al., Nature 408, 2000). Es wurde überprüft, ob das MIF-Pep-161-Peptid ebenfalls solch eine zellregulatorische Aktivität aufweist. Hierzu wurde untersucht, ob MIF-Pep-161 die zellulären Konzentrationen des Zellzyklusinhibitors p27-Kip1 modulieren kann. NIH 3T3-Fibroblasten wurden wie in Kleemann et al. (Nature 408, 2000) beschrieben kultiviert und induziert und mit MIF bzw. den MIFAR-Peptiden behandelt.

[4] = test system: mikrovaskulären Endothelzellen; assay: Cell proliferation assay in microvascular endothelial cells; assay type: cell-based; settings: Figure 5
Excerpt: Figur 5 zeigt, dass ähnliche biologische Aktivitäten in einem Zellproliferationsassay in mikrovaskulären Endothelzellen beobachtet werden. In diesem Fall inhibieren MIF und MIF-Pep-161 das Zellwachstum, was mit der Induktion des Zellzyklusinhibitors p27 (siehe Figur 4) korrespondiert; die Serinmutante von MIF-Pep-161 zeigt keinen Effekt.

With CC[C@H](C)[C@H](NC(=O)[C@H](CO)NC(=O)[C@H](Cc1c[nH]cn1)NC(=O)[C@H](CC(C)C)NC(=O)[C@H](CO)NC(=O)[C@H](CS)NC(=O)[C@H](CC(C)C)NC(=O)[C@H](C)NC(=O)[C@H](CS)NC(=O)[C@@H]1CCCN1C(=O)[C@H](CCC(=O)O)NC(=O)[C@H](CO)NC(=O)[C@H](CO)NC(=O)CNC(=O)CNC(=O)[C@@H](N)Cc1ccccc1)C(=O)O [MIF-Pep-161] the solubility [1] was at least 1000 µM, the “Anteil intramolekularer Disulfide” value [2] was over 90% and the “katalytische Aktivität” value (Insulin) was “signifikante kataytische Aktivität”. For the same molecule, the “MIF-Bioaktivität (Glucocorticoid-Overriding)” value (Macrophagen) was “maximale MIF-Bioaktivität”, the “Aktivität i.V. zu MIF” value ([3]; compared with MIF) was 12 +/- 3% and the “Aktivität i.V. zum Peptid / Rekombein in Lösung” value ([3]; compared with the same substance in solution) was 33 +/- 9%. For the same molecule, the “Kompetition mit Wildtyp-MIF für die Bindung mit Biotin markiertem Jab1” value (Jab1) was “kompetiert in konzentrationsabhängiger Weise”, the Glucocorticoid-Overriding-Aktivität (THP-1-Zellen) was “gute Aktivität” and the “p27-modulierende Zellaktivität” value (p27-Kip1) was “zu MIF vergleichbare p27-modulierende Zellaktivität”. The “Effekt auf das Zellwachstum” value [4] was “inhibieren”.
